Reference: PubChem BioAssay AID1963576 (National Center for Advancing Translational Sciences (NCATS), 2024)
The entries are a selection whose mix differs from that of the whole data set. Inconclusive results are not listed. Calls of active or inactive are those of the source. The call rests on the fitted dose curve; in most records, active means well fitted inhibition curve with a large enough effect; inconclusive means small, poorly fitted or top-dose-only effect; inactive means no such curve, though single readings can be large or run the other way.

experiment: Primary qHTS assay for Inhibitors of ovarian cancer metastasis using an organotypic tumor microenvironment (TME) model.; further: nearly all actives have a fitted effect of over 65% in size; settings: SKOV3ip1-GFP adhesion/invasion on 3D omental model, fluorescence; activity change, negative = inhibition: at 45.8 µM (top of the series)
Excerpt: PI: Ernst Lengyel MD., Ph.D. Department of Obstetrics and Gynecology, Section of Gynecologic Oncology University of Chicago Medicine, Chicago, Illinois. The tumor microenvironment (TME) is a key determinant of metastatic efficiency. We performed a quantitative high-throughput screen (qHTS) of diverse medicinal chemistry tractable scaffolds (44,420 compounds) and pharmacologically active small molecules (386 compounds) using a layered organotypic, robust assay representing the ovarian cancer metastatic TME. This 3D model contains primary human mesothelial cells, fibroblasts, and extracellular matrix, to which fluorescently labeled ovarian cancer cells are added. Initially, 100 compounds inhibiting ovarian cancer adhesion/invasion to the 3D model in a dose-dependent manner were identified. Of those, eight compounds were confirmed active in five high-grade serous ovarian cancer cell lines and were further validated in secondary in vitro and in vivo biological assays. […] Specifically, NCGC00117362 and PP-121 inhibited ovarian cancer adhesion, invasion, and proliferation, whereas milciclib inhibited ovarian cancer invasion and proliferation. […] To evaluate the clinical potential of NCGC00117362, structure - activity relationship studies were performed. […] The three compounds identified have promise as therapeutics for prevention and treatment of ovarian cancer metastasis.
PROTOCOL TABLE (as described by Inglese J, Shamu CE and Guy RK. 2007) SEQUENCE No. (e.g., 1, 2, 3, etc.); […] (e.g., Cells, Incubation, Reagent, etc.); VALUE; DESCRIPTION. 1; Cells; 4 uL; primary human omental fibroblast, black, clear bottom, low base, 1536-well Aurora assay plate. 2; Incubation; 48 hr; 37C. 3; Cells; 3 uL; 1,200 SKOV3ip1-GFP cells. 4; Compounds; 23nL; acoustic dispenser. 5; Incubation; 2 hr; room temperature. 6; Incubation; 16 hr; 37C. 7; Wash; 5 uL; 1x PBS. 8; Fixing; 5 uL; 4% paraformaldehyde (PFA). 9; Incubation; 15 min; room temperature 10; Wash, 5 uL; 1x PBS. 11; Detection; Fluorescence, excitation filter 488 nm, emission filter 509 nm. NOTES (numbers refer to Sequence numbers above) 1. For the 1,536-well format, 40 primary human omental fibroblasts and 400 mesothelial cells were seeded with 0.02 µg fibronectin and 0.02 µg collagen type I in 4 µL of growth media (2.3 mm2; Supplementary Fig. S1A). 2. Assay plates were incubated for 48 hours at 37 C. 3. After incubation, 1,200 SKOV3ip1-GFP were seeded in 3 µL of serum-free media (growth media minus FBS) on top of primary human omental cells. 4. Compounds or controls were added to each well immediately after the addition of the cancer cells. Compounds were screened in four doses (0.36-46 µmol/L), and the plates contained the positive control (Tomatine) in eight doses (0.035-75 µmol/L) and DMSO (equal volume controls) 5 - 6. The plates were incubated at room temperature for 2 hours and then at 37 degrees C for 16 hours. 7 - 10. Following incubation, the media were aspirated and each well washed with PBS (5 µL) and then fixed with 4% paraformaldehyde (PFA; 5 µL). After 15 minutes, the PFA solution was aspirated, PBS (5 µL) was added. 11. The number of GFP-labeled cells analyzed using a fluorescent cytometer TTP LabTech Acumen eX3 using 488 nm excitation filter and 509 nm emission filter. Data was normalized to the DMSO treated for negative and Tomatine treated wells for positive control. REFERENCES: Inglese J, Shamu CE and Guy RK, Reporting data from high throughput screening of small molecule libraries, Nature Chemical Biology, 2007, 3(8): 438-441. doi.org/10.1038/nchembio0807-438. Yasgar A, Shinn P, Jadhav A, Auld DS, Michael S, Zheng W, Austin CP, Inglese J and Simeonov A, Compound Management for Quantitative High-Throughput Screening. J. Assoc. Lab. Auto., 2008, 13: 79-89. doi: 10.1016/j.jala.2007.12.004.

SMILES	activity change, negative = inhibition
O=C(NCC1(N2CCOCC2)CCCCC1)c1ccccc1Br	inactive
CCCCOc1ccccc1C(=O)NCC1(N2CCOCC2)CCCCC1	inactive: 0.882%
CCOc1ccc(C(=O)NCC2(N3CCOCC3)CCCCC2)cc1	inactive
CCCOc1cccc(C(=O)NCC2(N3CCOCC3)CCCCC2)c1	inactive: -9.13%
COc1ccccc1C(=O)NCC1(N2CCOCC2)CCCCC1	inactive: 20.1%
O=C(NCC1(N2CCOCC2)CCCCC1)c1ccc(Cl)cc1	inactive: 6.11%
CCOC(=O)C(=O)CBr	inactive: -9.55%
COc1cc(C(=O)NCC2(N3CCOCC3)CCCCC2)cc(OC)c1OC	inactive
CN(C)C1(CNC(=O)c2ccc(C(C)(C)C)cc2)CCCCC1	inactive: -0.441%
Cc1ccccc1C(=O)NCC1(N(C)C)CCCCC1	inactive: 3.96%
CC(C)(C)c1ccc(C(=O)NCC2(N3CCOCC3)CCCCC2)cc1	inactive: 3.18%
O=C(NCC1(N2CCOCC2)CCCCC1)c1ccccc1[N+](=O)[O-]	inactive
O=C(NCC1(N2CCOCC2)CCCCC1)c1ccc([N+](=O)[O-])cc1	inactive
O=C(NCC1(N2CCOCC2)CCCCC1)c1ccccc1	inactive: 4.22%
